Data on 5 compounds can be found in PubChem BioAssay AID456 (Sanford-Burnham Center for Chemical Genomics, 2006).

The structures appear in SMILES notation. Only a part is listed here, and it is no random draw. Measured potencies and affinities stand elsewhere. Activity calls are given as the source filed them.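 How the source made its calls: active means top tenth filtered wells with inhibition above zero that passed visual or statistical confirmation; inactive means the rest, including hits rejected on review.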

The assay is described as follows: suppression of endothelial VCAM-1 upregulation – imaging, high-content imaging, pooled HUVEC, TNFa stimulus (AID 456). The conditions noted are these: HUVEC TNFa-induced VCAM-1 surface expression, immunofluorescence imaging.
Consider `Cc1ccc(C)c(NP(C)(=O)Oc2ccccc2)c1` (stereo not given), for which the compound was classed as inactive.
As for `CP(=S)(Nn1cnnc1)Oc1ccccc1` (stereo not given), the entry is “inactive”; as for `CP(=O)(Nc1ccccn1)Oc1ccccc1` (stereo not given), “inactive”.
As for `CN(C)CCOC(=O)C(O)(c1ccccc1)C1CCCCC1` (stereo not given), the entry is “inactive”; as for `CP(=O)(Nc1ccc2c(c1)OCCO2)Oc1ccccc1` (stereo not given), “inactive”.
